# Ab-14 heavy chain CDR variants: yeast mating affinities

Antigen: PDVDLGDISGINAS, a 14-residue peptide of the SARS-CoV-2 spike HR2 region.

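The starting antibody came from a phage panning campaign against this peptide. These sequences belong to a second round, designed from the earlier measurements on random variants of the parent. Their group label is 14H_En_Gibbs (En: ensemble of fine-tuned language models; Gibbs: Gibbs sampling). The scFvs were displayed on barcoded MATa yeast, the peptide on MATalpha yeast. Pairs that bind mate more often; barcode pairs of the diploids are counted by sequencing. Each replicate has its own calibration line, from reference interactions of the BCL2 family. Mating was done six times.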

Parent scFv Ab-14: VH joined to VL by the linker GGGGSGGGGSGGGGS. Changes lie in the heavy chain CDRs alone.
VH: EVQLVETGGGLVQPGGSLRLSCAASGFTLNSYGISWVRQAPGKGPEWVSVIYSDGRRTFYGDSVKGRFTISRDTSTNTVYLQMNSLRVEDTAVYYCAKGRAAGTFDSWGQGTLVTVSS
VL: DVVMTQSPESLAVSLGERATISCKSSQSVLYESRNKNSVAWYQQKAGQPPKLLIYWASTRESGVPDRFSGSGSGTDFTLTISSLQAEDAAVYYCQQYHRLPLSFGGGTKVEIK

The parent's heavy chain CDRs are GFTLNSYGIS, VIYSDGRRTFYGDSVK, GRAAGTFDS; each variant's own CDRs replace them letter for letter. Values are log10 of the apparent Kd in nM; lower means stronger binding. Where no diploid with the target was found in that replicate, the entry reads "nd": below detection, most likely a poor binder, though not proof of it. The range of this assay differs from that of the first round, and the authors advise against merging the two. The authors averaged sequences with at least three values out of six and counted those with two or fewer as poor binders. Of ten entries with the parent sequence, four were seen in most replicates (averages 0.34 to 2.37), three in one and three in none, so single entries are noisy. As a blank, each scFv also met three strains without target: over all heavy chain designs, 1% of these pairings were detected, typically at 2.08 and seldom below 0.84. Also given: how often the same scFv was detected with the empty control strains, with their mean in brackets.

| # | CDR-H1 | CDR-H2 | CDR-H3 | log10 Kd, replicates | empty controls |
|---|---|---|---|---|---|
| 1 | GFDLTEYGIS | VIYADGQRQEYSDDVK | GQTAGHFLH | nd / 2.83 / nd / nd / nd / nd | 0 of 18 |
| 2 | GFDLNEYGIS | VIYADGVRTAYLQNVK | GEVTGFDQY | nd / nd / 0.91 / nd / nd / nd | 0 of 18 |
| 3 | GFDLESYGIS | VIYADGYRSAYAQNVK | GGHAGGFHV | nd / nd / nd / nd / nd / nd | 0 of 18 |
| 4 | GENLEEYGIS | VIYADGIREQYVDDVK | GEQGGYFVT | nd / nd / nd / nd / nd / nd | 1 of 18 (0.82) |
| 5 | GFDIEEYGIS | VIYADGMRSSYSQSFK | GLYSGNISV | nd / 2.78 / nd / nd / nd / nd | 0 of 18 |
| 6 | GFDLEKYGIS | VIYADGKRVAYSDAVK | GGTGGMLMS | nd / nd / nd / nd / nd / nd | 0 of 18 |
| 7 | GFSLNEYGIS | VIYADGKRQVYANKVK | GNQTGTFDI | 1.57 / 1.85 / 1.81 / 1.65 / 1.36 / 1.85 | 1 of 18 (2.71) |
| 8 | GFDLNEYGIS | VIYADGVQRFYTDDVK | GGNQGGFVL | nd / nd / nd / nd / nd / nd | 1 of 18 (1.27) |
| 9 | GFDLNEYGIS | VIYADGMRQAYAQNVK | GVHVCWMVI | nd / nd / nd / nd / nd / nd | 0 of 18 |
| 10 | GDKLEDYGIS | VIYADGRRSAYVDNVK | GEYAGYFDV | nd / nd / nd / nd / nd / nd | 0 of 18 |
| 11 | GFDLQEYGVS | VIYADGRRMVYTNKFK | GGSTGTFDF | nd / nd / nd / nd / nd / nd | 1 of 18 (2.06) |
| 12 | GFTLDEYGIS | VIYADGQRTAYTDDVK | GQYGGIGYI | nd / nd / nd / nd / nd / nd | 1 of 18 (3.18) |
| 13 | GQSLDDYGIS | VIYADGQRKAAVDEVK | GEVAGTLDI | nd / nd / nd / nd / nd / nd | 0 of 18 |
| 14 | GDDLEDYGIS | VIYADGRRTAYQESVK | GLYAGMIDV | 2.03 / nd / 2.17 / 1.59 / 1.97 / 4.25 | 1 of 18 (1.58) |
| 15 | GYDLVEYGIS | VIYADGIRTVVSDDVK | GNVAGTIFV | nd / nd / nd / nd / nd / nd | 0 of 18 |
| 16 | GFDLDEYGIS | VIYADGIRSVYADSVK | GTGGGTIEA | nd / 1.99 / 1.14 / 0.71 / 1.59 / 2.34 | 0 of 18 |
| 17 | GQDLQEYGVS | VIYADGKRTAYADSFK | GKSLGLIFV | nd / nd / nd / nd / nd / nd | 0 of 18 |
| 18 | GKALDEYGIS | VIYADGKRTFYSNTVK | GQDGFFYDQ | 2.83 / nd / 3.74 / nd / nd / nd | 0 of 18 |
| 19 | GFDISEYGIS | VIYADGKKTQFVNTVK | GELGGTFNV | 1.87 / 2.34 / nd / nd / 3.41 / 1.29 | 0 of 18 |
| 20 | AFNLEDYGIS | VIYADGVRAMYVESVK | GGIAGTFDI | 0.63 / 0.31 / 0.30 / 0.05 / 0.87 / 0.60 | 0 of 18 |
| 21 | GFDLEEFGIS | VIYADGMRTAYSDAVK | GTFSGTVSV | nd / nd / nd / nd / nd / nd | 0 of 18 |
| 22 | GKDLQEYGIS | VIYADGARTAYSNSVK | GTQDGSLIV | -0.46 / -0.06 / -0.10 / -0.26 / 0.93 / 0.19 | 0 of 18 |
| 23 | GFSLDEMGIS | VIYADGKRSFYQDNVK | GVNSVTFNV | nd / nd / nd / nd / nd / nd | 0 of 18 |
| 24 | GFILDEYGIS | VIYADGQRSAYKDSVK | GVDDANGVI | 1.72 / 2.54 / nd / 1.90 / 0.91 / nd | 0 of 18 |
| 25 | GFDLEEMGVS | VIYADGKRKAYKNKAK | GQTAGSFDV | nd / nd / nd / nd / nd / nd | 0 of 18 |
| 26 | GFDLDQYGIS | VIYADGSRSYYADSVK | GHEGGILYV | nd / nd / nd / nd / nd / nd | 0 of 18 |
| 27 | GFDLDQYGIS | VIYADGKRSYYADSVK | GHEGGILYV | nd / nd / nd / nd / nd / nd | 0 of 18 |
| 28 | GYSLQDYGIS | VIYADGKRKSYAEDVK | GQTAGSVMD | nd / nd / nd / nd / nd / nd | 0 of 18 |
| 29 | GFDLEEMGVS | VIYHDGIRKAYKQKVK | GQFAGTFDV | nd / nd / nd / nd / nd / nd | 0 of 18 |
| 30 | GKSLDEYGIS | VIYADGMRSAYTDDVK | GVWGEDVVT | 2.04 / nd / nd / nd / 3.00 / nd | 0 of 18 |
| 31 | GFDLDEMGIS | VIYADGRRVYYTDKVK | GANGVDIKL | nd / nd / nd / nd / nd / nd | 0 of 18 |
| 32 | GFSLDNYGIS | VIYADGMRTAYANSVK | GEQDGFDTT | nd / nd / nd / nd / nd / nd | 0 of 18 |
| 33 | GYDLVEYGIS | VIYADGQRTAYADDVK | GNHGGIIDV | nd / nd / nd / nd / 1.92 / nd | 0 of 18 |
| 34 | GNDLNEYGIS | VIYADGLRVMYAENVK | GQLDVVVLV | nd / nd / nd / nd / nd / nd | 0 of 18 |
| 35 | GNDIDEYGIS | VIYADGQRTAYDEAVK | GTIAGSFFH | nd / nd / nd / 2.13 / nd / nd | 0 of 18 |
| 36 | GFDLDEYGVS | VIYADGNRNQYTEDVK | GTNSGAVDM | nd / nd / nd / nd / nd / nd | 0 of 18 |
| 37 | GFDLNEYGVS | VIYADGVRSAYTSSVK | GVGNLDIMI | nd / nd / nd / nd / nd / nd | 0 of 18 |
| 38 | GFDLDEYGIS | VIYADGVREAYIDSVK | GNWSGRIMY | 0.27 / 0.21 / -0.03 / -0.18 / -0.36 / 1.18 | 1 of 18 (1.59) |
| 39 | GFSLDEMGIS | VIYADGQRTAYVDNVK | SVNGVVVFL | nd / nd / nd / nd / nd / nd | 0 of 18 |
| 40 | GFDLLEYGIS | VIYADGQRVAYKNNVK | GKNGAFFSN | 0.06 / -0.05 / -0.28 / -0.36 / -0.10 / -0.05 | 0 of 18 |
| 41 | GFELNEFGIS | VIYADGMRASYRDDVK | GDISGDFML | nd / nd / nd / nd / nd / nd | 0 of 18 |

4 of these entries, quoted again:

CDR-H1	CDR-H2	CDR-H3	log10 Kd, replicates	empty controls
GFDLDEMGIS	VIYADGRRVYYTDKVK	GANGVDIKL	nd / nd / nd / nd / nd / nd	0 of 18
GNDIDEYGIS	VIYADGQRTAYDEAVK	GTIAGSFFH	nd / nd / nd / 2.13 / nd / nd	0 of 18
GFDLEEMGVS	VIYADGKRKAYKNKAK	GQTAGSFDV	nd / nd / nd / nd / nd / nd	0 of 18
GKALDEYGIS	VIYADGKRTFYSNTVK	GQDGFFYDQ	2.83 / nd / 3.74 / nd / nd / nd	0 of 18

From the AlphaSeq antibody data of Li et al. 2023 (doi:10.1038/s41467-023-39022-2), copy in the FLAb collection.